System: colorectal carcinoma cell line HCT-116
Details: ex vivo cultured (day 19) PINK cells pre-treated 24 hours, then co-cultured with HCT-116; control untreated PINK cells 24.3%

Nc1cccc2c1C(=O)N(C1CCC(=O)NC1=O)C2=O (racemic) [pomalidomide, 4-amino-2-[(3RS)-2,6-dioxopiperidin-3-yl)-1H-isoindole-1,3(2H)-dione]
cytotoxicity of compound-treated NK cells: 47.4%
